Results taken from PubChem BioAssay AID798 (PCMD, 2007).
Where “and” joins values, the source holds several entries; their conditions need not be identical. Equal values may be shown once. This is a selection; strong and weak results do not stand in their true shares. Calls of active or inactive are those of the source.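 The calls were made as follows: active = inhibition of at least 40%; inactive = inhibition below 40%.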

Protein sequences, listed by entry. Tags and fused reporters are not part of them.
UniProt P03951, whole entry, looked up: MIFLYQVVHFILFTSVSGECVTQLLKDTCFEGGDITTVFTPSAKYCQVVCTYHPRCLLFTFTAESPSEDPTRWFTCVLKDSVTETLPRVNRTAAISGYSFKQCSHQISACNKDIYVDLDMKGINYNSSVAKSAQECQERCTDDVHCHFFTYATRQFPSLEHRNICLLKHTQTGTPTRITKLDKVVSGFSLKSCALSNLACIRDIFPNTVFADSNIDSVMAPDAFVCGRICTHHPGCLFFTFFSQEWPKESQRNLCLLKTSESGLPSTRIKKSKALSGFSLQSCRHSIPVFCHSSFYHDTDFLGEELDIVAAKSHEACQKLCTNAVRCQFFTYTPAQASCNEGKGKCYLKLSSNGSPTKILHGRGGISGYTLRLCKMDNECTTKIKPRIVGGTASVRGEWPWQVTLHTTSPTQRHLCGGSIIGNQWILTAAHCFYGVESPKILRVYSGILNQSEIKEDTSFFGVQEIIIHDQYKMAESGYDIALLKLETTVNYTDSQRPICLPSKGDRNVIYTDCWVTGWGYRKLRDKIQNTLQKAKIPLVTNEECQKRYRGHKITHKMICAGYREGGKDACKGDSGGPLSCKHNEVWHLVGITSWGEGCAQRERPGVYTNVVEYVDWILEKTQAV

molecular target: Coagulation factor XI (Homo sapiens) (UniProt P03951); experiment: factor XIa enzyme inhibition, large library – biochemical, 1536-well, primary screen (AID 798); conditions: purified FXIa, Boc-Glu-Ala-Arg-AMC fluorogenic substrate; at 5 µM; hits give high values;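 also: fluorescence of freed AMC excited at 355 nm; 0% = enzyme without compound and 100% = no enzyme blank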

Question: For `CC(=O)Nc1ccc([As](=O)(O)O)cc1`, which inhibition is on record?
Answer: inactive: 4.28%

Question: `O=C(O)c1ccccc1[As](=O)(O)O` was tested. Which inhibition did it give?
Answer: inactive: 9.98%

Question: `O=P(Nc1nc2ccc(Cl)cc2s1)(c1ccccc1)c1ccccc1` was tested. Which inhibition did it give?
Answer: inactive: 0.05%

Question: With `Cc1cc(SC(NC(=O)c2ccc(F)cc2)C(Cl)(Cl)Cl)ncn1` (stereo not given) as the compound, how does the inhibition read?
Answer: inactive: -2.86%

Question: With `CCOP(=O)(Nc1ccccc1)OCC` as the compound, how does the inhibition read?
Answer: inactive: 1.78% and inactive: 3.19%

Question: `Cc1ccc(NP(=O)(Oc2ccccc2F)Oc2ccccc2F)nc1` was tested. Which inhibition did it give?
Answer: active: 46%

Question: For `CCN(N=Nc1nonc1N)c1nonc1N`, which inhibition is on record?
Answer: inactive: -1.51%

Question: With `Nc1cccc2ccc([As](=O)(O)O)cc12` as the compound, how does the inhibition read?
Answer: inactive: 3.44%

Question: Which inhibition does the source give for `NC(=O)c1cc([N+](=O)[O-])cc([N+](=O)[O-])c1N` here?
Answer: inactive: -6.93%

Question: For `Cc1ccc(N/C(=N/P(=O)(N2CCOCC2)N2CCOCC2)N2CCOCC2)cc1`, which inhibition is on record?
Answer: inactive: -1.1%

Question: `COc1ccccc1OP(=O)(Nc1ccc(C)cn1)Oc1ccccc1OC` was tested. Which inhibition did it give?
Answer: inactive: -1.61%

Question: `Cc1ccc(OP(=O)(Nc2nccs2)Oc2ccc(C)cc2)cc1` was tested. Which inhibition did it give?
Answer: inactive: -0.16%

Question: How did the inhibition turn out when `CN1CCCC(OC(=O)C(c2ccccc2)c2ccccc2)C1` (stereo not given) was run?
Answer: inactive: 18%

Question: `Clc1ccc(Cl)c(NC2=NCC(CBr)S2)c1` (stereo not given) was tested. Which inhibition did it give?
Answer: inactive: -1.66%

Question: With `Nc1cc(N)c2nonc2c1[N+](=O)[O-]` as the compound, how does the inhibition read?
Answer: inactive: 2.46%

Question: Which inhibition does the source give for `CC(C)CC(=O)NC(Sc1ccc(Cl)cc1)C(Cl)(Cl)Cl` (stereo not given) here?
Answer: inactive: 2.71%

Question: For `Oc1ccccc1CNc1ccccn1`, which inhibition is on record?
Answer: inactive: 4.36%

Question: Which inhibition does the source give for `O=C(NC(Sc1ccncn1)C(Cl)(Cl)Cl)c1ccccc1` (stereo not given) here?
Answer: inactive: -3.84%

Question: For `Cc1c2non([O-])c-2c(C)[n+](=O)[n+]1[O-]`, which inhibition is on record?
Answer: inactive: 12.1%

Question: With `COc1ccc(C2=NCC(CBr)S2)cc1` (stereo not given) as the compound, how does the inhibition read?
Answer: inactive: -2.26%

Question: How did the inhibition turn out when `CC(=O)N1C2C3N(C(C)=O)C1C1N(C(C)=O)C(C(N1C(C)=O)N3C(C)=O)N2C(C)=O` was run?
Answer: inactive: 7.38%

Question: With `O=[N+]([O-])c1cccc2n[nH]nc12` as the compound, how does the inhibition read?
Answer: inactive: 5.36%

Question: Which inhibition does the source give for `Cc1ccc(NP(=O)(Oc2ccccc2)Oc2ccccc2)nc1` here?
Answer: inactive: -7%

Question: For `O=[N+]([O-])c1cc([N+](=O)[O-])c(CCNc2ccccc2)c([N+](=O)[O-])c1`, which inhibition is on record?
Answer: inactive: -1.67%

Question: With `CCc1nc2c(n1)c1c(non1O)c1c2no[n+]1[O-]` as the compound, how does the inhibition read?
Answer: inactive: 20.2%

Question: For `Nc1ccc([As](=O)(O)c2ccc(N)cc2)cc1`, which inhibition is on record?
Answer: inactive: 9.99%

Question: For `C[N+]1=C2C=CC=CC=C2SC12C([N+](=O)[O-])=CC([N+](=O)[O-])=C[C-]2[N+](=O)[O-]` (stereo not given), which inhibition is on record?
Answer: inactive: 3.09%

Question: With `CCN(/C(=N/P(=O)(N1CCOCC1)N1CCOCC1)N1CCOCC1)c1ccc(OC)cc1` as the compound, how does the inhibition read?
Answer: inactive: -1.6%

Question: How did the inhibition turn out when `CC(C)=N/N=C(\N)N[N+](=O)[O-]` was run?
Answer: inactive: -2.23%

Question: With `CN(C)C(=O)OCCc1n(C)cc[n+]1C` as the compound, how does the inhibition read?
Answer: inactive: -5.75%

Question: With `CC1CCN(C(=O)Oc2c(Cl)cc(Cl)c3cccnc23)CC1` as the compound, how does the inhibition read?
Answer: inactive: 1.02%

Question: How did the inhibition turn out when `O=C(Nc1cc([As](=O)(O)O)ccc1O)c1ccccc1` was run?
Answer: inactive: -8.75%

Question: `CC(C)(C)C(=O)NC(Sc1ccncn1)C(Cl)(Cl)Cl` (stereo not given) was tested. Which inhibition did it give?
Answer: inactive: -4.26%

Question: Which inhibition does the source give for `O=[N+]([O-])c1ncn(CCn2ncnc2[N+](=O)[O-])n1` here?
Answer: inactive: -0.63%

Question: With `O=[N+]([O-])c1cccc(NC2=NCC(CBr)S2)c1` (stereo not given) as the compound, how does the inhibition read?
Answer: inactive: 1.86%

Question: `O=C(O)CNc1ccc([As](=O)(O)O)cc1` was tested. Which inhibition did it give?
Answer: inactive: -2.83%

Question: How did the inhibition turn out when `O=P(Nc1ccccn1)(c1ccc(Br)cc1)c1ccc(Br)cc1` was run?
Answer: inactive: -1.2%

Question: For `O=P(Nc1nc2ccccc2s1)(c1ccccc1)c1ccccc1`, which inhibition is on record?
Answer: inactive: -3.04%

Question: For `C[C@H]1OP(=O)(Oc2ccccc2)[C@H](O)[C@H](O)[C@H]1N=[N+]=[N-]` (stereo not given in full), which inhibition is on record?
Answer: inactive: -0.05%

Question: How did the inhibition turn out when `CC(=O)NC(SC(=S)N(C)C)C(Cl)(Cl)Cl` (stereo not given) was run?
Answer: inactive: 5.03%

Question: Which inhibition does the source give for `O=[N+]([O-])c1ncn(CCn2cnc([N+](=O)[O-])n2)n1` here?
Answer: inactive: -2.15%

Question: Which inhibition does the source give for `O=[As](O)(c1ccccc1)c1ccc(O)cc1` here?
Answer: inactive: -8.28%

Question: With `C(Cc1nn[nH]n1)Cc1nn[nH]n1` as the compound, how does the inhibition read?
Answer: inactive: 3.72%

Question: Which inhibition does the source give for `Nc1ccc([As](=O)(O)c2ccc([N+](=O)[O-])cc2)cc1` here?
Answer: inactive: 2.05%

Question: Which inhibition does the source give for `O=C(OC1CN2CCC1CC2)c1cccc(Cl)c1` (stereo not given) here?
Answer: inactive: -1.23%

Question: With `O=P(Nc1nccs1)(c1ccccc1)c1ccccc1` as the compound, how does the inhibition read?
Answer: inactive: -2.04%

Question: For `CC(C)C(=O)NC(Sc1ccccc1)C(Cl)(Cl)Cl` (stereo not given), which inhibition is on record?
Answer: inactive: 4.16%

Question: With `c1nnnn1CCn1cnnn1` as the compound, how does the inhibition read?
Answer: inactive: -1.19%

Question: `O=P1(Nc2nc3ccc(Cl)cc3s2)COc2ccccc2O1` (stereo not given) was tested. Which inhibition did it give?
Answer: inactive: 1.66%

Question: With `CCOc1ccc(C2=NCC(CBr)S2)cc1` (stereo not given) as the compound, how does the inhibition read?
Answer: inactive: -4.52%

Question: `CC(C)(C)C(=O)NC(Sc1ccccc1)C(Cl)(Cl)Cl` (stereo not given) was tested. Which inhibition did it give?
Answer: inactive: -6.31%

Question: How did the inhibition turn out when `C[C@H]1OP(=O)(Oc2ccccc2)C[C@@H]2O[C@@H]21` (stereo not given in full) was run?
Answer: inactive: 0.63%

Question: Which inhibition does the source give for `C[C@@H]1C=CCP(=O)(Oc2ccccc2)O1` (stereo not given in full) here?
Answer: inactive: -0.77%

Question: With `CC(=O)Nc1ccc([As](=O)(O)O)c(O)c1` as the compound, how does the inhibition read?
Answer: inactive: -1.89%

Question: Which inhibition does the source give for `CC(=O)Nc1ccc(Oc2c([N+](=O)[O-])cc([N+](=O)[O-])cc2[N+](=O)[O-])cc1` here?
Answer: inactive: 2.69%

Question: `O=C(NC1CCS(=O)(=O)C1)NP(=S)(Oc1ccccc1)Oc1ccccc1` (stereo not given) was tested. Which inhibition did it give?
Answer: inactive: -3.3%

Question: For `CCNC(=S)/N=C(\N)N[N+](=O)[O-]`, which inhibition is on record?
Answer: inactive: -3.01%

Question: `c1ccc(-c2nn[nH]n2)c(-c2nn[nH]n2)c1` was tested. Which inhibition did it give?
Answer: inactive: -3.92%

Question: Which inhibition does the source give for `Cc1ccc(NP(=O)(Oc2cccc(C)c2)Oc2cccc(C)c2)nc1` here?
Answer: inactive: 3.73%

Question: `CCOC(=O)NC(Sc1ccccc1)C(Cl)(Cl)Cl` (stereo not given) was tested. Which inhibition did it give?
Answer: inactive: -0.82%

Question: For `COC(=O)c1cc2c(s1)N=C(c1ccccc1)N(C)P2(=O)N1CCOCC1` (stereo not given), which inhibition is on record?
Answer: inactive: 15.7%

Question: Which inhibition does the source give for `CC(=O)NC(SC(=S)N(CC(C)C)CC(C)C)C(Cl)(Cl)Cl` (stereo not given) here?
Answer: inactive: 9.04%

Question: For `Cc1ccc(OP(=O)(Nc2ccccn2)Oc2ccc(C)cc2)cc1`, which inhibition is on record?
Answer: inactive: 4.9%

Question: Which inhibition does the source give for `CCC(=O)N1C2C3N(C(=O)CC)C1C1N(C(=O)CC)C(C(N1C(=O)CC)N3C(=O)CC)N2C(=O)CC` here?
Answer: inactive: 16.9%

Question: With `Cc1ccccc1OP(=O)(Nc1ccccn1)Oc1ccccc1C` as the compound, how does the inhibition read?
Answer: inactive: 2.44%
